{
  "sequences": {"note": "The chains behind the UniProt entries cited, without tags or fusion partners. Residues count along the entry.", "UniProt P22303, 32-614": "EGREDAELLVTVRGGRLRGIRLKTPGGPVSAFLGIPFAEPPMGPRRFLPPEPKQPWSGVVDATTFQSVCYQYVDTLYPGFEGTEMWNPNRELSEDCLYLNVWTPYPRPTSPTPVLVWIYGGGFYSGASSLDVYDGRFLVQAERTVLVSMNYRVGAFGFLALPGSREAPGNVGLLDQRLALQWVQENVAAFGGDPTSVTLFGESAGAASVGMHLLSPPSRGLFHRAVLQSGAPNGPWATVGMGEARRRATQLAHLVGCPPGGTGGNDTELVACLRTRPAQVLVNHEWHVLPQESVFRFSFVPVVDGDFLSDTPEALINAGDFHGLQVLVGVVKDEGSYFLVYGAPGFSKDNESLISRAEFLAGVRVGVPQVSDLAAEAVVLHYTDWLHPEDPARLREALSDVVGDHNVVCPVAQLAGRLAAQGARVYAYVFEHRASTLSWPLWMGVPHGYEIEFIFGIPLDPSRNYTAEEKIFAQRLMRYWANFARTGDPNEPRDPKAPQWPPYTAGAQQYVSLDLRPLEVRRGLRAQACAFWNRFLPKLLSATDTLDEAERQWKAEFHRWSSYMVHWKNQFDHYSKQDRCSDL"},
  "source": "paper PMC10985906",
  "about": "“Anticholinesterase activities of novel isoindolin-1,3-dione-based acetohydrazide derivatives: design, synthesis, biological evaluation, molecular dynamic study” (BMC Chemistry, 2024)",
  "origin": "cited, not measured here",
  "molecular_target": "AChE (Homo sapiens, UniProt P22303)",
  "conditions": "read-out: AChE IC50; previously reported; cited from earlier work",
  "data": [
    {"substance": "2-(benzylamino-2-hydroxyalkyl)isoindoline-1,3-dione", "values": [
      {"measurement": "IC50", "result": 3.33, "unit": "µM"}
    ]}
  ]
}
